Data set [1] deals with Red blood cells (RBC). As to the kind of experiment: Red blood cell toxicity. The data set is classed as cell-based.
A short description of data set [2]: Red blood cell toxicity. The data set is classed as cell-based. The note with it: red blood cells (RBC); RBCs; concentration required for 50% toxicity; read-out: TX50.
Data set [3] concerns S. aureus (methicillin resistant) ATCC 33591. As for the experimental part:
(§1) The bacteria tested were P. aeruginosa American Type Culture Collection Number (ATCC) 10145, E. coli ATCC 2592, and S. aureus (methicillin reseistant) ATTC 33591.
(§2) All experiments were compared to bacterial growth under optimal growth conditions (37° C., pH 7.0, absence of additional salt, growth media—referred to as standard growth conditions). In each plate, no growth control (media alone), positive growth control (bacteria with no test sample), positive antimicrobial controls (agents with known antimicrobial activity) and test compounds were tested.
(§3) The plates were incubated overnight, and the relative percent growth determined by optical density at 620 nm (OD620) using a […] […] PLUS™. […] All samples were tested in duplicate and each assay was repeated at least twice. […] IC50 and MIC are reported in μg/ml.

The subject of data set [4] is E. coli ATCC 2592. As for the experimental part:
as §1, §2, §3

Data set [5] has as its system HeLa cell line. Description: HeLa MTS cellular reduction toxicity assay. It counts as cell-based. The note with it: for TX50: 24 h, MTS. As for the experimental part:
The RBC protocol was from Blondelle (2000) and is described generally as follows: The toxicity toward the HeLa cell line was determined using a MTS (3-(4-5-dimethylthiazol-2-yl)-5-(3carboxymethoxyphenyl)-2-(4-sulfophenyl)-2H-tetrazolium, sodium salt) cellular reduction assay. MTS (2 mg/mL) was prepared in Dulbecco PBS (pH 7.35), filtered, aliquoted and stored at minus 20° C. In 96 well flat bottomed plates, cell suspensions (250 μL of 6×10^4 cell/mL in each well) were incubated for 48 h at 37° C. (5% CO2 incubator). The peptides (50 μL) were then added to the cell monolayer (following aspiration of the media from each well and addition of 50 μL of Dulbecco's Modified Eagles Medium) at varying concentrations derived from serial 2-fold dilutions, and the plates incubated for 24 h at 37° C. (5% CO2 incubator). Proliferation was then determined by adding a solution of phenazine methosulfate (PMS: 0.92 mg/mL in DPBS) to MTS at a 1:20 ration just prior to the assay. Twenty microliters MTS-PMS solution were added to each well and the plates incubated for 1 h at 37° C. (5% CO2 incubator). The relative percent toxicity was determined by comparing the absorbance at 490 nm of each peptide to the absorbance of cells without peptide. The TX50 (concentration required for 50% toxicity) was calculated using a sigmoidal curve fitting software (Graphpad Prism).
In general terms: Tetrazolium dyes change colour on reduction, which living cells bring about.

Data set [6] relates to Cr. Neoformans 32045. The data set is classed as cell-based. The procedure:
(§4) The MIC and IC50 values were determined by a broth microdilution method according to guidelines of the National Committee for Clinical Laboratory Standard as follows: In 96-well tissue culture plates, a fixed volume of bacterial suspension in 2× broth (as defined below) was added to the mixtures or individual compounds dispensed at concentrations varying from 1,000 to 1 μg/ml derived from serial two-fold dilutions in sterile water. The bacteria tested were P. aeruginosa American Type Culture Collection Number (ATCC) 10145, E. coli ATCC 2592, and S. aureus (methicillin reseistant) ATTC 33591.
(§5) The plates were incubated overnight, and the relative percent growth determined by optical density at 620 nm (OD620) using a TITERTEK MULTISKAN PLUS™. […] IC50 values were calculated using a sigmoidal curve fitting software program (GRAPHPAD,™ ISI Software,™ San Diego, Calif.). All samples were tested in duplicate and each assay was repeated at least twice. In the following table, KFAK is the repeat unit and multimers of KFAK were tested. IC50 and MIC are reported in μg/ml.
(§6) Because the antibacterial activity of the periodic peptides was so promising, further experiments were performed to determine if the periodic peptides also had antifungal activity. The experimental design was similar to that above, with accommodation made for fungal growth requirements, including the use of Sabouraud Dextrose Broth (SDB) and Sabouraud Dextrose Agar (SDA) slants.

The test system of data set [7] is C. albicans 10231. It counts as cell-based. The procedure:
as §4, §5, §6

The test system of data set [8] is P. aeruginosa ATCC 10145. The procedure: as §1, §2, §3
Data set [9] has as its system P. aeruginosa ATCC 15442. As to the kind of experiment: HMARQ biocidal kill activity. To be noted: P. aeruginosa ATCC 15442 (gram−). It counts as cell-based. The procedure: (§7) Biocide efficacy protocols were improved by reducing sample size, organizing the test material into an array format, implementing most probable number (MPN) quantitation and using multi-channel liquid handling equipment. We call the new method “high-throughput microanalysis and rapid quantitation” or “HMARQ.” HMARQ is directly applicable to current industrial efficacy tests such as multi-cycle preservation challenge or time course disinfection tests.
(§8) HMARQ is performed in a high throughput plate, such as 96-well microtiter plates. Typical sample volumes have been reduced down to 200 to 300 μL, but can be reduced further if desired. In these samples, no more than 10% of the total volume will be composed of the biocide and organism solution, and all non-matrix additions are normalized for all samples.
(§9) The sample matrix is first inoculated with the desired concentration of microorganisms. Inoculated sample matrix is then added to the 96-well assay block containing the biocide(s) under study. Each sample block contains biocide treated samples and untreated control samples (lacking biocide). Once the samples are prepared, the entire block of samples is mixed by vortexing until each sample is homogenous. In general, the study starts once mixing is complete, and samples are removed as required for the analysis. When Kill Time testing (rate of biocide activity) is performed, the microorganisms are added after biocide addition to the samples, allowing for rapid mixing and analysis.
(§10) Bacterial concentration (CFU/mL) is determined using the most probable number method (MPN). The contaminated solution is serially diluted until the “no growth” endpoint is reached. The endpoint represents the MPN and is expressed in units of the bacterial concentration. A serial 1:10 dilution will yield a bacterial concentration resolution of 1 log and the log reduction is determined by comparing the concentration of organisms in a treated sample to the concentration of organisms in untreated samples. For example, if a sample requires four 1:10 dilutions before bacterial growth is lost then the MPN for bacterial concentration in the sample is less than or equal to 1×10^4 CFU/mL (1E4). […] This method of enumeration is generally applicable to all non-filamentous microorganisms.
(§11) Media included Tryptic Soy Broth (TSB) for bacteria and Sabouraud Dextrose Broth (SDB) for fungi. These are available commercially and prepared according to the manufacturers instructions. Indicator medium was TSB/R for bacteria and SDB/R for fungi. […]
(§12) Using the HMARQ test described above, periodic peptides were generated and tested for Kill Activity. […] Units are expressed as ppm (μg/mL) needed for 3.5 log kill at 15 min or 24 hour and the results are shown below.

Data set [10] deals with Staph. aureus ATCC 6538. Description: HMARQ biocidal kill activity. It counts as cell-based. The note with it: Staph. aureus ATCC 6538 (gram+). The procedure: as §7, §8, §9, §10, §11, §12

In brackets after ≈: the same amount, converted by molar mass.

Turning to `C[C@H](NC(=O)[C@H](Cc1ccccc1)NC(=O)[C@@H](N)CCCCN)C(=O)N[C@@H](CCCCN)C(=O)O` [KFAK (1)], the “% kill at 250 μg/ml” value in data set [1] came out at 2.8%. Besides, the HC50 at 24 h in [2] is more than 500 µg/mL. Further, the IC50 (in general, the point on the concentration scale where inhibition reaches its midpoint) in data set [3] was more than 500 µg/mL; in data set [4] it was more than 250 µg/mL; in [6], 400 µg/mL (≈ 812 µM); in data set [7] it was 329 µg/mL (≈ 668 µM). Besides, the MIC (usually the lowest concentration found to suppress growth) in [3] is more than 500 µg/mL; in [4], more than 250 µg/mL; in [6], more than 500 µg/mL; in data set [7], more than 500 µg/mL. Also, the “% kill at 500 μg/ml” value in data set [5] is recorded as 112%. Besides, in data set [5], the TX50 was more than 500 µg/mL.
For the compound `C[C@H](NC(=O)[C@H](Cc1ccccc1)NC(=O)[C@H](CCCCN)NC(=O)[C@H](CCCCN)NC(=O)[C@H](C)NC(=O)[C@H](Cc1ccccc1)NC(=O)[C@@H](N)CCCCN)C(=O)N[C@@H](CCCCN)C(=O)O` [KFAK (2)], the “% kill at 250 μg/ml” value in data set [1] was 2.2%. The HC50 at 24 h in data set [2] was more than 250 µg/mL. The IC50 in data set [8], in [3], in data set [4], in [6] and in data set [7] was more than 250 µg/mL throughout. For the same compound, the MIC in [3], in data set [4], in data set [6] and in data set [7] was more than 250 µg/mL in each case. The “% kill at 500 μg/ml” value in [5] is 83%. Also, the TX50 in data set [5] was more than 500 µg/mL.
Consider `C[C@H](NC(=O)[C@H](Cc1ccccc1)NC(=O)[C@H](CCCCN)NC(=O)[C@H](CCCCN)NC(=O)[C@H](C)NC(=O)[C@H](Cc1ccccc1)NC(=O)[C@H](CCCCN)NC(=O)[C@H](CCCCN)NC(=O)[C@H](C)NC(=O)[C@H](Cc1ccccc1)NC(=O)[C@@H](N)CCCCN)C(=O)N[C@@H](CCCCN)C(=O)O` [KFAK (3)], for which, in [1], the “% kill at 250 μg/ml” value was determined as 0.4%. Also, the HC50 at 24 h in data set [2] is more than 500 µg/mL. Also, the IC50 was more than 500 µg/mL in data set [3], more than 250 µg/mL in data set [4], 22 µg/mL (≈ 15.3 µM) in data set [6] and 262 µg/mL (≈ 182 µM) in data set [7]. The MIC in [3] was more than 500 µg/mL; in [4], more than 250 µg/mL; in data set [6] it was 125 to 250 µg/mL; in [7], 280 to 500 µg/mL. In [5], the “% kill at 500 μg/ml” value is 77%. The TX50 in data set [5] was more than 500 µg/mL.
In the case of `CC(C)C[C@H](NC(=O)[C@H](CCCCN)NC(=O)[C@H](CC(C)C)NC(=O)[C@H](CCCCN)NC(=O)[C@H](CC(C)C)NC(=O)[C@H](CCCCN)NC(=O)[C@H](CC(C)C)NC(=O)[C@H](CCCCN)NC(=O)[C@H](CC(C)C)NC(=O)[C@H](CCCCN)NC(=O)[C@H](CC(C)C)NC(=O)[C@H](CCCCN)NC(=O)[C@@H](N)CC(C)C)C(=O)N[C@@H](CCCCN)C(=O)O` [LK (7)], the “% kill at 250 μg/ml” value in data set [1] is 16%. In [2], the HC50 at 24 h was more than 500 µg/mL. Besides, the IC50 was found to be 111 µg/mL (≈ 65 µM) in data set [8]; 78 µg/mL (≈ 45.7 µM) in data set [3]; 37 µg/mL (≈ 21.7 µM) in data set [4]; 0.8 µg/mL (≈ 0.469 µM) in data set [6]; 166 µg/mL (≈ 97.2 µM) in data set [7]. Moreover, the MIC in data set [8] is 125 µg/mL (≈ 73.2 µM); in [3], 250 to 500 µg/mL; in [4], 45 to 62 µg/mL; in data set [6] it was 2 to 4 µg/mL; in data set [7], 250 to 500 µg/mL. Also, the “% kill at 500 μg/ml” value in [5] amounted to 29.6%. In data set [5], the TX50 came to 309 µg/mL. In addition, the “ppm needed for 3.5 log kill at 15 min” value is 8 ppm in data set [9] (15 min) and 16 ppm in data set [10] (15 min). For the same compound, the figures for the “ppm needed for 3.5 log kill at 24 hr” value in data set [9] (24 hr) and in data set [10] (24 hr) were 8 ppm and 4 ppm, respectively.

(Values after patent US7091185B2, “Periodic antimicrobial peptides” (Dow Global Technologies Inc., priority 2003, dated 2006).)
